The experiment concerns the target T1, Dihydrofolate reductase (Homo sapiens, UniProt P00374).
T1 sequence (P00374 whole entry): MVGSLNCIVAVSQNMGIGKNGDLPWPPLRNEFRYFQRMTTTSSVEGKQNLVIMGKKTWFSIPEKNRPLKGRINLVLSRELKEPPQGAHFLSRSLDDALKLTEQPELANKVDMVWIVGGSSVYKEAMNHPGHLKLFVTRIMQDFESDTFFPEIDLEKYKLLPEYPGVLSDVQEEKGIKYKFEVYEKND
The experiment is described as follows: Inhibition of recombinant human DHFR expressed in Escherichia coli preincubated for 15 mins followed by addition of DHF as substrate and NADPH measured after 60 mins by resazurin/diaphorase coupled assay. For orientation: The colour change of resazurin is a common sign of viable cells or microbes.

The term IC50 denotes the concentration that gives 50% inhibition.

On to `Nc1ncc(N2CCN(c3cccc(-c4ccccc4)c3)CC2)c(N)n1`, for which the IC50 worked out at 0.76 µM.

Values taken from ChEMBL document CHEMBL3865850, “Discovery of Potent and Selective Leads against Toxoplasma gondii Dihydrofolate Reductase via Structure-Based Design” (ACS Med Chem Lett, 2016).
